This note sets out measurements from patent US20140107109A1, “AMINO-DIHYDROTHIAZINE AND AMINO-DIOXIDO DIHYDROTHIAZINE COMPOUNDS AS BETA-SECRETASE ANTAGONISTS AND METHODS OF USE” (Amgen Inc., priority 2012, published 2014).

The chains behind the UniProt entries cited, without tags or fusion partners. Residues count along the entry.
UniProt P56817, 46-501: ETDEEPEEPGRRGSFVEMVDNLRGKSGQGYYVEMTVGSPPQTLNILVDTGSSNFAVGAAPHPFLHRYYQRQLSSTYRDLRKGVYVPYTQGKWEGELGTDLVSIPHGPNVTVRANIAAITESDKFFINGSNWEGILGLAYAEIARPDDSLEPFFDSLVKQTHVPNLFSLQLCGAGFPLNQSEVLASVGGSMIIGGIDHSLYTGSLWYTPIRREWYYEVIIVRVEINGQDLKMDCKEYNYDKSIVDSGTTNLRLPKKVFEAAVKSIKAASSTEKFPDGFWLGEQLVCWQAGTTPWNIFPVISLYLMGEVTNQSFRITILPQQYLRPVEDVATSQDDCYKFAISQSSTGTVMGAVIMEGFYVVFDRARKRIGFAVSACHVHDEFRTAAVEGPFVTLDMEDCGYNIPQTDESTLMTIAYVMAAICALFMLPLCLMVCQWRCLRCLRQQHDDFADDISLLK

Molecules are shown by their SMILES. Like-named read-outs stand apart in the source and are kept apart here.

The experiment has as its target Beta Secretase enzyme (BACE1) (Homo sapiens, UniProt P56817). The experiment is described as follows: In vitro enzymatic BACE FRET assay. Format: biochemical. The method, then:
In Vitro Enzymatic BACE FRET (Fluorescence Resonance Energy Transfer) Assay (Enzyme Assay Data in the Example Tables I and II)
The assay buffer used in this screen is 0.05 M acetate, pH 4.2, 10% DMSO final, 100 uM genapol (which is a nonionic detergent, below its Critical Micelle Concentration). […] This assay is effectively started by the addition of FRET substrate (50 nM) and the combination is incubated for one hour. The FRET assay is terminated with by addition of Tris buffer, which raises the pH to neutrality, and the fluorescence is determined. The FRET substrate is a peptide with commercially available fluorophore and quencher, on opposite sides of the BACE cleavage site. Proteolytic cleavage of the FRET substrate releases quenching of fluorescence (excitation […] and […]).

With `COc1cnc(C(=O)Nc2ccc(F)c([C@]3(C)CSCC(N)=N3)c2)cn1` [Example 43, (R)—N-(3-(5-amino-3-methyl-3,6-dihydro-2H-1,4-thiazin-3-yl)-4-fluorophenyl)-5-methoxypyrazine-2-carboxamide], the IC50 stood at 23.6 nM.

In the case of `CC1(C)C(N)=N[C@@]2(c3cc(Nc4nccc5cc(Cl)cnc45)ccc3F)C[C@H]2S1(=O)=O` [Example 183, (1R,6R)-4-amino-6-(5-((3-chloro-1,7-naphthyridin-8-yl)amino)-2-fluorophenyl)-3,3-dimethyl-2-thia-5-azabicyclo[4.1.0]hept-4-ene 2,2-dioxide], the IC50 (average IC50, enzyme assay) was determined as 3.05 nM.

Usually IC50 stands for the point on the concentration scale where inhibition reaches its midpoint.
